Values of other authors, collected in patent US20250108091A1, “PROTEIN FORMULATION, PREPARATION METHOD THEREFOR AND USE THEREOF” (BEIJING LIANGYUAN BIO-SCIENCE, LLC, priority 2022, published 2025).

Assays:
[1] = molecular target: T1, IL2Rα (CD25) (Homo sapiens, UniProt P01589); details: low affinity; cited from earlier work
T1 sequence (P01589 22-272): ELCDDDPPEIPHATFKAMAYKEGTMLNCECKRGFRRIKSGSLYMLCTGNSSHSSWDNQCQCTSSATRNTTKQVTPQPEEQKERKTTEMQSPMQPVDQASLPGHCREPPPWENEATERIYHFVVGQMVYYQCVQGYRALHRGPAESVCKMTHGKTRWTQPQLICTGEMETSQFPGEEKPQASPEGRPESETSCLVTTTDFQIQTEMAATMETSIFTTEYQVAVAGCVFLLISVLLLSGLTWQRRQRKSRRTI

[2] = molecular target: T2, αβγ trimer (Homo sapiens, UniProt P01589+P14784+P31785); details: high affinity; cited from earlier work
T2 sequence (P01589 22-272): T1 sequence (P01589 22-272)
T2 sequence (P14784 27-551): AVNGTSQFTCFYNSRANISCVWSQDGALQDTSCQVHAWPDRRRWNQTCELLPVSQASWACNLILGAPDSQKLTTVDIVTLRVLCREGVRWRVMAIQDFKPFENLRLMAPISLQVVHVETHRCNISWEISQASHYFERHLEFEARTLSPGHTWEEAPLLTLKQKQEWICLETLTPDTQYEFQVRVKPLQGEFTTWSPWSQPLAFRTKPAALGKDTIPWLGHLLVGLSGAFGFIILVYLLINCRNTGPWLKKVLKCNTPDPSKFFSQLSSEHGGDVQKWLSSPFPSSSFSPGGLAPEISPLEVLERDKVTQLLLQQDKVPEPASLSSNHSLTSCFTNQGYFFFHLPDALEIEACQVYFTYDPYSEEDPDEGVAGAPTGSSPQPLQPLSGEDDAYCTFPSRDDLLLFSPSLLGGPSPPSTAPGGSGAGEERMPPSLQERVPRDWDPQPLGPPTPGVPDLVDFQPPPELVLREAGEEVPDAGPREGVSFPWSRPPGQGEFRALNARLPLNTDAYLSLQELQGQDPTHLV
T2 sequence (P31785 23-369): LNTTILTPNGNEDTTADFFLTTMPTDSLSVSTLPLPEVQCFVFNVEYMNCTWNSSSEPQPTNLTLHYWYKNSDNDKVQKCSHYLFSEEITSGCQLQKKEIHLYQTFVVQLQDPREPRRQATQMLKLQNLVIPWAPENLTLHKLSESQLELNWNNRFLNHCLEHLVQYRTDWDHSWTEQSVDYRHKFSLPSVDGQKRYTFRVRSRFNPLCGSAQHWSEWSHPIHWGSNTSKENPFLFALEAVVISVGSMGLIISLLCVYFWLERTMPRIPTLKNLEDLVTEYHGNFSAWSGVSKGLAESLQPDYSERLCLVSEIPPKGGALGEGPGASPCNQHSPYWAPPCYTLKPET

For “IL2: T cell growth factor, glycoprotein of four α-helices, molecular weight 15.5 Kd”, the Kd [1] is given as roughly 10 nM and the Kd [2] is given as roughly 0.01 nM.
